{
  "sequences": {"note": "Sequences of proteins named here, by UniProt entry; tags and fusion partners are left off. Residues count along the entry.", "UniProt P29597, 575-876 limits assumed": "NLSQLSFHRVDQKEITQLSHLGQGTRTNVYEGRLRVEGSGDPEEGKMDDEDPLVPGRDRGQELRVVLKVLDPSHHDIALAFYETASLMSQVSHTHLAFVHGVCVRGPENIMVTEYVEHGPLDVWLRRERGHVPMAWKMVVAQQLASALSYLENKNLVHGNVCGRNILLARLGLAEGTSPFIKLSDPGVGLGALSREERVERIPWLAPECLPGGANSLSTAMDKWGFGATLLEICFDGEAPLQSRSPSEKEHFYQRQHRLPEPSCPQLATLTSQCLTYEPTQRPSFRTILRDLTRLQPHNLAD"},
  "source": "patent US20260258032A1",
  "about": "“TYROSINE KINASE 2 INHIBITORS AND USES THEREOF” (BIOGEN MA INC., priority 2022, published 2026)",
  "key": {"JH2 domain of human Tyk2": {"target": "JH2 domain of human Tyk2 (Homo sapiens, UniProt P29597)", "assay": "JH2 biochemical assay (TR-FRET probe displacement)", "details": "read-out: TYK2-JH2 IC50", "description": "The inhibitory potency of compounds of the disclosure against the kinase activity of recombinantly generated JH2 domain of human Tyk2 was evaluated in a plate-based assay using a TR-FRET assay platform. Briefly, 2 nM of recombinant JH2 domain [10×His-tagged TYK2 JH2 domain (amino acid 575-876)] was combined with 2 nM probe ((S)-6-amino-9-(2-carboxy-4-((1-(3-(8-methyl-5-(methylamino)-8H-imidazo[4,5-d]thiazolo[5,4-b]pyridin-2-yl)phenyl)ethyl)carbamoyl)phenyl)-3-iminio-5-sulfo-3H-xanthene-4-sulfonate), 0.1 nM Tb-labeled anti-His antibody, and compounds of disclosure for 60 minutes. Compounds are tested at either […] top concentration, 10 points of 3-fold dilution. The TR-FRET signal […] by compounds and signal was calculated by taking the ratio of fluorescence at 520 nm and 495 nm. The data was normalized and the percent activity versus log concentration of compound was fitted with a 4-parameter logistic model to generate IC50 curves."}, "[1]": {"tested_on": "Tyk2 kinase activity on STAT4", "assay": "pSTAT4 cell assay (MSD, NK92 cells)", "details": "read-out: TYK2, compounds 1 hr, stimulated 15 minutes", "description": "The inhibitory potency of compounds of the disclosure against the Tyk2 kinase activity on STAT4 was evaluated using an MSD-platform plate-based assay format. NK92 cells natively expressing STAT4 and Tyk2 were serum-starved to reduce background phosphorylation levels, then cells were treated compounds for 1 hr with a 10-point four-fold dilution series starting at 10 μM. Cells were then stimulated with 30 ng/mL IL2 for 15 minutes. Cells were lysed and […] levels were quantitated using an MSD plate-based assay with anti-STAT4 antibodies. The data were normalized and the percent activity versus log concentration of compound were fitted with a 4-parameter logistic model to generate to generate IC50 curves."}},
  "data": [
    {"smiles": "CC(=O)Nc1cc2c(cn1)C1(CC1)CN2c1cc(C)nc(C2CCC(F)(F)C2)n1", "note": "(centres unmarked)", "values": [
      {"measurement": "IC50", "setting": "JH2 domain of human Tyk2", "result": "< 0.01", "unit": "µM"},
      {"measurement": "IC50", "setting": "[1]", "result": "0.1 to 1", "unit": "µM"}
    ]},
    {"smiles": "CC(=O)Nc1cc2c(cn1)CCN2c1nccc(C(C)(F)F)n1", "values": [
      {"measurement": "IC50", "setting": "JH2 domain of human Tyk2", "result": "0.1 to 1", "unit": "µM"}
    ]},
    {"smiles": "CC(=O)Nc1cc2c(cn1)C1(CC1)CN2c1cc(C2COC2)nc(C(C)(F)F)n1", "values": [
      {"measurement": "IC50", "setting": "JH2 domain of human Tyk2", "result": "< 0.01", "unit": "µM"},
      {"measurement": "IC50", "setting": "[1]", "result": "0.1 to 1", "unit": "µM"}
    ]},
    {"smiles": "CC(=O)Nc1cc2c(cn1)C1(CC1)CN2c1cc(C)nc(C2CCC2)n1", "values": [
      {"measurement": "IC50", "setting": "JH2 domain of human Tyk2", "result": "< 0.01", "unit": "µM"},
      {"measurement": "IC50", "setting": "[1]", "result": "0.1 to 1", "unit": "µM"}
    ]},
    {"smiles": "CNc1cc(N2CCc3cnc(NC(C)=O)cc32)nc(C(C)(F)F)n1", "values": [
      {"measurement": "IC50", "setting": "JH2 domain of human Tyk2", "result": "0.01 to 0.1", "unit": "µM"},
      {"measurement": "IC50", "setting": "[1]", "result": "> 1", "unit": "µM"}
    ]},
    {"smiles": "COc1nc(C)cc(N2CC3(CC3)c3cnc(NC(C)=O)cc32)n1", "values": [
      {"measurement": "IC50", "setting": "JH2 domain of human Tyk2", "result": "0.01 to 0.1", "unit": "µM"},
      {"measurement": "IC50", "setting": "[1]", "result": "> 1", "unit": "µM"}
    ]}
  ]
}
